TDP1 block: TDP1 (human) enzyme inhibition; Q9NUW8; recombinant TDP1, AlphaScreen DNA substrate cleavage; Potency, µM (top dose mostly 130 µM), without a hit: at the top dose activity change, negative = inhibition, usual class: inhibitors; 350,000 compounds, 0.28% hits; AID 485290; note: potency is the fitted concentration of half-maximal effect; % is set by controls: 0 for no effect and ±100 for the full control effect; nearly all actives have a fitted effect of over 40% in size
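Enzyme-compound mixtures sat 15 min at room temperature, followed by a 5 min reaction with 15 nM final substrate and 10 min with AlphaScreen beads. Recombinant human Tdp1 was used at 1 nM final.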
uPA surface inh: cell surface uPA generation inhibition. cell surface uPA generation assay, qHTS. Potency, µM (top dose mostly 38.3 µM), for inactives: at the highest dose activity change, negative = inhibition, most hits filed as inhibitors. 330,000 compounds, 0.31% hits. AID 540303; active = well fitted inhibition curve with a large enough effect; inconclusive = small, poorly fitted or top-dose-only effect; inactive = no such curve, though single readings can be large or run the other way; tested in mouse RAW 264.7 cells; note: potency is the fitted concentration of half-maximal effect; % is set by controls: 0 for no effect and ±100 for the full control effect; nearly all actives have a fitted effect of over 55% in size
DT40 TDP1 CPT: DT40-hTDP1 cell growth loss with CPT | 420,000 compounds, 12% hits | chicken DT40 Tdp1-/-;hTDP1 cells + 20 nM CPT, ATP luminescence, 48 h | Potency, µM (top dose mostly 46.2 µM), inactives show at the highest dose activity change, negative = growth inhibition, actives largely listed as inhibitors; note: potency is the fitted concentration of half-maximal effect; % is set by controls: 0 for no effect and ±100 for the full control effect; nearly all actives have a fitted effect of over 55% in size
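Chicken DT40 Tdp1-/- cells stably complemented with human TDP1 were seeded at 400 cells/well in medium containing 20 nM camptothecin, exposed to pin-transferred compounds, and grown at 37 °C for at least 48 hr. Viability was read as ATP luminescence.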
miR-21 reporter: miR-21 reporter, rising signal; HeLa miR-21 FLuc reporter, luciferase, 48 h; Potency, µM (titrated, usually from 38.3 µM), for the others: at the top dose reporter change, positive = more light; 340,000 tested, under 10 active; AID 2288; active = well fitted rising curve with a large enough effect; inconclusive = small, poorly fitted or top-dose-only effect; inactive = no such curve, though single readings can be large or run the other way;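 also: % of control where 0% means no effect; miR-21 action dims this reporter so a rising signal means less miR-21 action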
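Luminescence from a firefly luciferase reporter carrying a miR-21 binding site downstream, stably expressed under a CMV promoter in HeLa cells that make miR-21 endogenously, reports miRNA modulation after 48 h compound exposure up to approximately 40uM final.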
TDP1 cell noCPT: qHTS for Inhibitors of human tyrosyl-DNA phosphodiesterase 1 (TDP1): qHTS in cells in absence of CPT. DT40 Tdp1-/- hTDP1 cells, no CPT, ATP luminescence, 48 h. AID 686978, 2013. Potency, µM (top dose mostly 46.2 µM), for inactives: at the top dose activity change, negative = growth inhibition, hits mostly inhibitors. 420,000 compounds, 15% hits; note: potency is the fitted concentration of half-maximal effect; % is set by controls: 0 for no effect and ±100 for the full control effect; nearly all actives have a fitted effect of over 55% in size
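Stably hTDP1-transfected Tdp1-null chicken DT40 cells were treated with library compounds minus camptothecin and grown for at least 48 hr at 37 °C, after which cellular ATP was quantified by luminescence.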
An asterisk follows results filed as active; ? = inconclusive; / = not tested or not shown; [ ] = dose if it differs, or a comment. An excerpt weighted towards active compounds, which were near 16% of everything screened. Unless noted, calls come from the whole dose curve; as a rule, active = well fitted curve in the direction sought with a large enough effect; inconclusive = small, poorly fitted or top-dose-only effect, or another doubt; inactive = no such curve, though single readings can be large; an effect the other way counts as inactive or inconclusive.

#	SMILES	TDP1 block	uPA surface inh	DT40 TDP1 CPT	miR-21 reporter	TDP1 cell noCPT
1	CCCCN(CC)CCNC(=O)C1CCCN(c2ncnc3onc(C)c23)C1 (centres undefined)	1.1%	/	-26.2%	-1.9%	-15.6%
2	CC(C)(C)c1ccc(OCC(=O)N(Cc2ccco2)Cc2ccccc2F)cc1	-2.3%	/	?	?	20.6µM*
3	CN(Cc1ccccc1F)C(=O)COc1ccc(C(=O)c2ccccc2)cc1	/	-3.1%	23.1µM*	9.5%	20.6µM*
4	CCc1ccc(CN(Cc2ccco2)C(=O)COc2ccc(Cl)cc2C)cc1	0.0%	/	?	17.7%	?
5	Cc1cc(Cl)ccc1OCC(=O)N(Cc1ccco1)Cc1ccccc1F	0.0%	/	?	8.9%	16.4µM*
6	CC(C)(C)c1ccc(OCC(=O)NCc2ccco2)cc1	1.9%	-0.8%	-13.5%	-8.2%	?
7	CCOC(=O)C1CCN(C(=O)c2ccccc2NS(=O)(=O)c2ccccc2)CC1	5.0%[56.1 µM]	-0.1%	3.3%	-1.1%	-2.4%
8	CCc1nc2ccc(C(=O)NCCCN3CCCC3=O)cn2c1N(CC)CCN(C)C	/	/	8.6%	/	-2.8%
9	CCOc1ccc(NC(=O)Cn2c(=O)n(Cc3ccccc3)c(=O)c3sc4ccccc4c32)cc1	6.4%	/	6.51µM*	-3.3%	9.2µM*
10	Cc1cccc(NC(=O)Cn2c(=O)n(CCc3ccccc3)c(=O)c3sc4ccccc4c32)c1	6.4%	/	16.4µM*	-3.4%	23.1µM*
11	Cc1ccccc1CNc1nnnn1C	-3.1%	-2.5%	2.8%	-2.3%	19.1%
12	C[C@@H]1[C@H](c2ccccc2)OCCS(=O)(=O)N1Cc1ccc(Cl)cc1	/	/	11.2µM*	/	10µM*
13	C[C@@H]1[C@H](c2ccccc2)OCCS(=O)(=O)N1Cc1ccccc1	/	/	-7.2%	/	-6.6%
14	Cc1ccccc1CN1[C@H](C)[C@H](c2ccccc2)OCCS1(=O)=O	/	/	?	/	12.6µM*
15	C[C@@H]1[C@H](c2ccccc2)OCCS(=O)(=O)N1Cc1cccc(Cl)c1	/	/	?	/	12.6µM*
16	CC(C)[C@H]1COCCS(=O)(=O)N1Cc1ccccc1-c1ccccc1	-2.1%[56.1 µM]	2.6%	?	/	?
17	O=S1(=O)CCOCCCN1Cc1cccc(Cl)c1	/	/	-72.1%	/	?
18	O=C(Nc1sc2c(c1C(=O)NCC1CCCO1)CCCC2)c1cc(=O)c2ccccc2o1 (centres undefined)	0.0%	/	-5.9%	0.8%	-2.9%
19	COc1ccc(C(=O)CSc2nccn2C)c(OC)c1	4.8%	-12.9%	4.8%	-51.9%	8.7%
20	Cc1ccccc1-c1cc(=O)c2ccccc2o1	-0.1%	?	20.6µM*	/	?
21	O=c1cc(-c2ccc(O)cc2O)oc2ccccc12	12.4%[56.1 µM]	/	-4.7%	/	-16.4%
22	O=c1cc(-c2ccccc2F)oc2ccccc12	8.7%	-6.3%	?	-67.9%	?
23	O=c1cc(-c2ccccc2[N+](=O)[O-])oc2ccccc12	-3.5%	-13.9%	16.4µM*	2.4%	23.1µM*
24	Nc1sc(-c2ccccc2)cc1C(=O)NCCN1CCOCC1	/	/	-8.3%	/	?
25	Cc1cc(Cl)ccc1OCC(=O)N(Cc1cccs1)C1CCS(=O)(=O)C1 (centres undefined)	1.3%	-1.5%	?	0.1%	?
26	COc1cccc(C(=O)NCC2CCN(c3ccc(S(=O)(=O)N4CCOCC4)cc3)CC2)c1	4.0%	-5.3%	?	2.1%	?
27	COc1ccccc1NS(=O)(=O)c1ccc2c(c1)OCCO2	5.6%	-2.8%	-22.2%	-0.6%	-15.4%
28	COC(=O)c1ccc(C)c(NS(=O)(=O)c2ccc(C)c([N+](=O)[O-])c2)c1	2.0%	-8.3%	-23.7%	-1.4%	?
29	COC(=O)c1ccc(C)c(NS(=O)(=O)c2ccc(OC)cc2)c1	3.6%	-8.3%	0.291µM*	24.9%	0.231µM*
30	COC(=O)c1ccc(C)c(NS(=O)(=O)c2ccc3c(c2)OCCO3)c1	0.0%	?	0.92µM*	20.3%	0.92µM*
31	O=CNc1cc2c(cc1Br)-c1ccccc1C2O (centres undefined)	/	-0.1%	-20.7%	/	-28.0%
32	CC(=O)c1nn(-c2cccc(Br)c2)cc1C(=O)c1ccc(Br)cc1	1.0%	-2.1%	13µM*	0.4%	11.6µM*

Part of the list above, with one line to a screen:
[7] CCOC(=O)C1CCN(C(=O)c2ccccc2NS(=O)(=O)c2ccccc2)CC1
[24] Nc1sc(-c2ccccc2)cc1C(=O)NCCN1CCOCC1
[5] Cc1cc(Cl)ccc1OCC(=O)N(Cc1ccco1)Cc1ccccc1F
[29] COC(=O)c1ccc(C)c(NS(=O)(=O)c2ccc(OC)cc2)c1

assay / entry,7,24,5,29
TDP1 block,5.0%[56.1 µM],/,0.0%,3.6%
uPA surface inh,-0.1%,/,/,-8.3%
DT40 TDP1 CPT,3.3%,-8.3%,?,0.291µM*
miR-21 reporter,-1.1%,/,8.9%,24.9%
TDP1 cell noCPT,-2.4%,?,16.4µM*,0.231µM*

High-throughput results from PubChem.
